The results in this text go back to US20110263693A1, “CELASTROL, GEDUNIN, AND DERIVATIVES THEREOF AS HSP90 INHIBITORS” (DANA-FARBER CANCER INSTITUTE, INC., priority 2006, published 2011).

The structures appear in SMILES notation.

One data set deals with HSP90α (Homo sapiens, UniProt P07900). Nature of the data set: Geldanamycin competition assay (Cy3B-geldanamycin fluorescence polarization). It counts as binding. On the set-up: purchased Stressgen SPP776 / SPP-776. Conditions: celastrol and gedunin at concentrations up to ~100 μM.
The nature of another data set: in vitro. Conditions: human.

As to `C=CCNC1=C2C[C@@H](C)C[C@H](OC)[C@H](O)[C@@H](C)/C=C(\C)[C@H](OC(N)=O)[C@@H](OC)/C=C\C=C(/C)C(=O)NC(=CC1=O)C2=O` [17-AAG, 17-allylamino-geldanamycin, reference compound], the “competition with Cy3B-geldanamycin for binding to the ATP-binding pocket of HSP90α” value on HSP90α is “competed with geldanamycin binding at low concentrations”.

By viability is commonly meant a read-out of living cells in per cent, often relative to untreated cells. Read a low viability as a greater loss of cells. `COP(=S)(OC)Oc1ccc([N+](=O)[O-])cc1` [methyl parathione] yielded a viability in “in vitro” of 65.8%.
